From EP4840855A1, “SULFONAMIDE DERIVATIVE, PREPARATION METHOD THEREFOR AND USE THEREOF” (dated 2026)

Sequences of proteins named here, by UniProt entry; tags and fusion partners are left off.
UniProt P17812, whole entry: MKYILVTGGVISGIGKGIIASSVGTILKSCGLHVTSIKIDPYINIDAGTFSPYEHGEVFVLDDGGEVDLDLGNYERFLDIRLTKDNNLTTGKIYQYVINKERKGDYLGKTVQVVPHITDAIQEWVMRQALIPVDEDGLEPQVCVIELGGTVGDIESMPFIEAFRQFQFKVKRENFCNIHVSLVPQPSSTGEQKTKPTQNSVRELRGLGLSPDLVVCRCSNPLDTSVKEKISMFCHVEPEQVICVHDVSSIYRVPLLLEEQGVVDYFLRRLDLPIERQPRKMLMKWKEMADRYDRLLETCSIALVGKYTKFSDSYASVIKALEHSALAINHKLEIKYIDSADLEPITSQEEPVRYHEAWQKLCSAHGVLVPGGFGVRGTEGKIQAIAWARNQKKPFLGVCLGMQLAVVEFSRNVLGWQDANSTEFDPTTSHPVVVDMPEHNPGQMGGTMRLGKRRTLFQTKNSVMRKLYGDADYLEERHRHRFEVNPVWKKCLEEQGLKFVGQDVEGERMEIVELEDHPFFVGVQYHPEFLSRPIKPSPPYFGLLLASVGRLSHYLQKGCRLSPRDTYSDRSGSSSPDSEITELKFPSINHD

Key:
[1] = system: Jurkat (Clone E6-1) cells; experiment: Inhibition on Jurkat cell proliferation (CellTiter-Glo cell viability); conditions: 72 hours culture
Description: (§1) The following method was used to determine the effect of the compounds of the present disclosure on Jurkat cell proliferation. Jurkat (Clone E6-1) cells were purchased from the Cell Resource Center of Shanghai Institutes for Biological Sciences, Chinese Academy of Sciences, and were cultured in RPMI 1640 medium containing 10% fetal bovine serum, 100 U penicillin, and 100 µg/mL streptomycin. Cell viability was measured using a CellTiter-Glo® Luminescent Cell Viability Assay kit (Promega, catalog number G7573).
The experiment was performed according to the kit's manual, briefly summarized as follows: test compounds were first dissolved in DMSO to prepare 10 mM stock solutions, which were then diluted with medium to prepare test samples. The final concentration range of the compounds was from 10000 nM to 1.52 nM. Cells in the logarithmic growth phase were seeded into a 96-well cell culture plate at a density of 1000 cells per well, and test compounds were added. The cells were cultured in a 37°C CO2 incubator for 72 hours. After culturing, 50 µL of CellTiter-Glo detection reagent was added to each well, the plate was shaken for 5 minutes, and allowed to stand for 10 minutes. The luminescence of each well was then measured using a microplate reader in Luminescence mode. The percentage inhibition at each concentration point was calculated by comparison with the control group (0.1% DMSO). Nonlinear regression analysis of compound concentration logarithm versus inhibition rate was performed using GraphPad Prism 9 software to obtain the IC50 values of the compounds for inhibiting cell proliferation, as shown in Table 1. Table 1 IC50 Data for Inhibition on Jurkat Cell Proliferation by the Compounds of the Present Disclosure

[2] = target: human cytidine triphosphate synthase 1 (hCTPS1) (Homo sapiens, UniProt P17812); experiment: Inhibition on hCTPS1 enzyme activity (ADP-Glo Kinase Assay); conditions: 40 nM hCTPS1, 120 µM ATP, 160 µM UTP, 60 µM GTP, 100 µM L-Glutamine, 120 minutes
Description: The following method was used to determine the degree of inhibition on human cytidine triphosphate synthase 1 (hCTPS1) enzyme activity by the compounds of the present disclosure in vitro. ADP-Glo™ Kinase Assay kit (catalog number V9102) from Promega was used in this method. The kit's manual may be referred for a detailed experimental procedure.
The experimental procedure was briefly described as follows: The reaction was performed in a buffer containing 50 mM 4-hydroxyethylpiperazineethanesulfonic acid (HEPES), 10 mM magnesium chloride, 5 mM potassium chloride, 0.01% Pluronic F127, and 4 mM dithiothreitol in a 384-well plate. First, 100 nL of gradient-diluted compound was transferred to the 384-well plate via a nanoliter acoustic liquid transfer system (manufacturer: Labcyte; catalog number: Echo 655), and 2.5 µL of buffer containing hCTPS1 was added, followed by incubation in a 25°C incubator for 10 minutes. Then 2.5 µL of buffer containing ATP and UTP was added, followed by incubation in a 25°C incubator for 10 minutes. Finally, 5 µL of buffer containing GTP and L-glutamine (L-Gln) was added to initiate the reaction. The final reaction system was: 40 nM hCTPS1, 120 µM ATP, 160 µM UTP, 60 µM GTP, 100 µM L-Glutamine, 1% DMSO, with a total assay volume of 10 µL. The reaction was performed for 120 minutes, then 10 µL of ADP-Glo Reagent was added, followed by incubation for 1 hour. Then 20 µL of Kinase Detection Reagent was added, and after 1 hour, the chemiluminescence value was recorded on a Microbeta microplate reader (manufacturer: PerkinElmer; catalog number: Envision). The percentage inhibition rates of the compounds at each concentration were calculated by comparing the chemiluminescence intensity ratio with a control group (0.1% DMSO). The IC50 value of the compounds were obtained by nonlinear regression analysis of compound concentration logarithm-inhibition rate using GraphPad Prism 5 software, as shown in Table 2. Table 2 IC50 data for inhibition on hCTPS1 enzyme activity by the compounds of the present disclosure

[3] = Pharmacokinetic testing in mice (plasma concentration by LC-MS/MS); conditions: ICR mice, male, Oral (10 mg/kg), fasted overnight
Description: ICR mice were used as test animals. Plasma concentrations of the test compounds at different time points were measured by LC/MS/MS after intragastrical administration of the reference compound STP-B and the compounds of the present disclosure, and the pharmacokinetic characteristics of the compounds of the present disclosure in mice were studied.
ICR mice, male, 30.8 to 38.0 g, purchased from Vital River Laboratory Animal Technology Co., Ltd.
An appropriate amount of the test compound was weighed, and an appropriate amount of DMA (N,N-dimethylacetamide), 30% Solutol HS15 (30% polyethylene glycol-15 hydroxystearate), and saline were added sequentially, mixed by ultrasonication and vortexing to prepare a 1 mg/mL dosing formulation. The ratio of DMA:30% Solutol HS15:saline was 10:10:80 (v/v/v).
ICR mice in each test compound injection group (9 mice per group) were fasted overnight and then administered intragastrically (PO, compound dose was 10 mg/kg, dosing volume was 10 mL/kg), and fed 4 hours after dosing.
About 0.1 mL of blood was collected from the orbit before dosing and at 0.25 h, 0.5 h, 1 h, 2 h, 4 h, 8 h, 10 h, and 24 h after dosing, and whole blood samples were placed in anticoagulant tubes containing EDTA-K2. After blood sample collection, samples were placed on ice and centrifuged to separate plasma (centrifugation conditions: 1500 g, 10 minutes). The collected plasma was stored at -40 to -20°C before analysis.
The content of test compounds in mouse plasma after intragastrical administration was determined by LC-MS/MS.

[4] = system: BxPC-3 cells (human primary pancreatic cancer cells); experiment: Inhibition on BxPC-3 cell proliferation (CellTiter-Glo cell viability); conditions: 120 hours culture
Description: as §1, with “the proliferation of BxPC-3 cells (human primary pancreatic cancer cells). BxPC-3” for “Jurkat cell proliferation. Jurkat (Clone E6-1)”, “DMEM” for “RPMI 1640”, “determined” for “measured”, “using” for “using a”
The experimental method was performed according to the steps in the kit's manual, briefly described as follows: The test compound was first dissolved in DMSO to prepare a 10 mM stock solution, then diluted with medium to prepare test samples, with a final concentration range of the compound from 10000 nM to 1.52 nM. Cells in logarithmic growth phase were seeded into a 96-well cell culture plate at a density of 1000 cells per well, then the test compounds were added, and the cells were cultured in a 37°C CO2 incubator for 120 hours. After culture was completed, 50 µL of CellTiter-Glo detection reagent was added to each well, the plate was shaken for 5 minutes, then allowed to stand for 10 minutes, and then the luminescence value of each well of the sample was read on a microplate reader using Luminescence mode. The percentage inhibition rates of the compounds at each concentration point were calculated by comparing with the value of a control group (0.1% DMSO). Then nonlinear regression analysis was performed on compound concentration logarithm-inhibition rate in GraphPad Prism 9 software to obtain the IC50 values of the compounds for inhibiting cell proliferation, as shown in Table 4. Table 4 IC50 data for inhibition on BxPC-3 cell proliferation by the compounds of the present disclosure

SMILES | pIC50 [1] | pIC50 [2] | AUC AUC0-1(ng·h/mL) [3] [ng·h/mL] | Half-life T1/2 [3] [h] | Plasma concentration Cmax [3] [ng/mL] | pIC50 [4]
CCOc1cncc(-c2ccc(NC(=O)C3(c4cc(NS(=O)(=O)C5CC5)ncn4)CC4CC4C3)cc2)n1 (centres unmarked) | 8.44 | 7.96 | 72611 | 4.52 | 13438 | 
O=C(Nc1ccc(-c2cnn3ccc(Cl)cc23)cc1)C1(c2cc(NS(=O)(=O)C3CC3)ncn2)CC2CC2C1 (centres unmarked) | 8.08 |  | 151721 | 5.73 | 21738 | 
CCOc1cncc(-c2ccc(NC(=O)C3(c4cc(NS(=O)(=O)C5CC5)ncn4)Cc4ccccc4C3)cc2)n1 | 7.56 |  | 142000 | 2.86 | 36900 | 
CCOc1cncc(-c2cnc(C(=O)NC3(c4cc(NS(C)(=O)=O)ncn4)CC4CC4C3)s2)n1 (centres unmarked) | 7.97 |  | 64400 | 2.6 | 15600 | 
CCOc1cncc(-c2ccc(NC(=O)C3(c4cc(NS(=O)(=O)C5CC5)ncn4)CC4CCC(C3)O4)c(F)c2)n1 (centres unmarked) | 8.25 |  | 66475 | 2.06 | 15294 | 
CCOc1cncc(-c2ccc(NC(=O)C3(c4cc(NS(=O)(=O)C5CC5)ccn4)[C@@H]4CN(C)C[C@@H]43)cc2)n1 (some centres unmarked) | 7.80 | 7.84 |  |  |  | 
CCOc1cncc(-c2ccc(NC(=O)C3(c4ccnc(NS(=O)(=O)C5CC5)n4)CC4CC4C3)cc2)n1 (centres unmarked) | 7.16 | 7.74 |  |  |  | 
CCOc1cncc(-c2ccc(NC(=O)C3(c4cncc(NS(=O)(=O)C5CC5)n4)CC4CC4C3)nc2)n1 (centres unmarked) | 7.78 |  | 111000 | 2.8 | 28500 | 
O=C(Nc1ccc(-c2cnn3ccc(Cl)cc23)cn1)C1(c2nccc(NS(=O)(=O)C3CC3)n2)CC2CC2C1 (centres unmarked) | 7.97 |  | 329711 | 5.32 | 36550 | 
CCOc1cncc(-c2ccc(NC(=O)C3(c4ccnc(NS(=O)(=O)C5CC5)n4)CCOCC3)nc2)n1 |  | 7.43 | 37484 | 3.05 | 34375 | 7.38
CCOc1cncc(-c2ccc(NC(=O)C3(c4cncc(NS(=O)(=O)C5CC5)n4)CC4CC4C3)cc2)n1 (centres unmarked) | 7.38 |  |  |  |  | 
CCOc1cncc(-c2ccc(NC(=O)C3(c4cncc(NS(=O)(=O)C5CC5)c4)CC4CC4C3)cc2)n1 (centres unmarked) | 7.31 |  |  |  |  | 
CCOc1cncc(-c2ccc(C(=O)NC3(c4cc(NS(=O)(=O)C5CC5)ncn4)CC4CC4C3)s2)n1 (centres unmarked) | 8.63 |  | 59792 | 2.24 | 45398 | 
CCOc1cncc(-c2ccc(NC(=O)C3(c4ccnc(NS(=O)(=O)C5CC5)n4)CCc4c(cnn4C)C3)cc2)n1 (centres unmarked) | 7.53 | 7.79 |  |  |  | 

Continued by rising pIC50 [1], values first:

pIC50 [1] | pIC50 [2] | AUC AUC0-1(ng·h/mL) [3] [ng·h/mL] | Half-life T1/2 [3] [h] | Plasma concentration Cmax [3] [ng/mL] | pIC50 [4] | SMILES
7.14 | 7.60 |  |  |  |  | CCOc1cncc(-c2ccc(NC(=O)C3(c4ccnc(NS(=O)(=O)C5CC5)n4)Cc4ccccc4C3)nc2)n1
7.20 |  |  |  |  |  | CCOc1cncc(-c2ccc(NC(=O)C3(c4ccnc(NS(=O)(=O)C5CC5)c4)CC4CC4C3)cc2)n1 (centres unmarked)
7.62 |  |  |  |  |  | O=C(Nc1ccc(-c2cnn3ccc(Cl)cc23)cc1)C1(c2nccc(NS(=O)(=O)C3CC3)n2)CC2CC2C1 (centres unmarked)
7.64 |  |  |  |  |  | CCOc1cncc(-c2ccc(NC(=O)C3(c4cncc(NS(=O)(=O)C5CC5)n4)CC4CCC(C3)O4)cc2)n1 (centres unmarked)
7.82 |  | 180249 | 2.41 | 45501 |  | CCOc1cncc(-c2ccc(NC(=O)C3(c4nccc(NS(=O)(=O)C5CC5)n4)C[C@H]4CC[C@@H](C3)O4)c(F)c2)n1 (some centres unmarked)
7.86 |  | 113217 | 2.35 | 38635 |  | CCOc1cncc(-c2ccc(NC(=O)C3(c4ccnc(NS(=O)(=O)C5CC5)n4)CC4CCC(C3)O4)cc2)n1 (centres unmarked)
7.97 | 7.70 |  |  |  |  | CCOc1cncc(-c2ccc(NC(=O)C3(c4cc(NS(=O)(=O)C5CC5)ccn4)[C@@H]4COC[C@@H]43)cc2)n1 (some centres unmarked)
8.04 |  | 369691 | 6.3 | 38390 | 7.62 | CCOc1cncc(-c2ccc(NC(=O)C3(c4nccc(NS(=O)(=O)C5CC5)n4)CC4CC4C3)c(F)c2)n1 (centres unmarked)
8.07 |  | 124000 | 2.15 | 14700 |  | CCOc1cncc(-c2ccc(NC(=O)C3(c4cc(NS(=O)(=O)CC)ncn4)CC4CC4C3)cc2)n1 (centres unmarked)
8.13 |  | 92300 | 2.69 | 25900 |  | CCOc1cncc(-c2cnc(C(=O)NC3(c4cc(NS(=O)(=O)CC)ncn4)CC4CC4C3)s2)n1 (centres unmarked)
8.47 | 8.23 |  |  |  |  | CCOc1cncc(-c2ccc(NC(=O)C3(c4cc(NS(=O)(=O)C5CC5)ccn4)[C@@H]4CCC[C@@H]43)cc2)n1 (some centres unmarked)
8.49 |  |  |  |  |  | CCOc1cncc(-c2ccc(NC(=O)C3(c4nccc(NS(=O)(=O)C5CC5)n4)C[C@H]4CC[C@@H](C3)O4)nc2)n1 (some centres unmarked)

pIC50: −log10 of the molar value.
